Results published in patent US5945509A, “Glutamate receptor compositions and method” (The Salk Institute for Biological Studies, priority 1995, dated 1999).

Sequences of proteins named here, by UniProt entry; tags and fusion partners are left off. Residues count along the entry.
UniProt P19490, 19-907: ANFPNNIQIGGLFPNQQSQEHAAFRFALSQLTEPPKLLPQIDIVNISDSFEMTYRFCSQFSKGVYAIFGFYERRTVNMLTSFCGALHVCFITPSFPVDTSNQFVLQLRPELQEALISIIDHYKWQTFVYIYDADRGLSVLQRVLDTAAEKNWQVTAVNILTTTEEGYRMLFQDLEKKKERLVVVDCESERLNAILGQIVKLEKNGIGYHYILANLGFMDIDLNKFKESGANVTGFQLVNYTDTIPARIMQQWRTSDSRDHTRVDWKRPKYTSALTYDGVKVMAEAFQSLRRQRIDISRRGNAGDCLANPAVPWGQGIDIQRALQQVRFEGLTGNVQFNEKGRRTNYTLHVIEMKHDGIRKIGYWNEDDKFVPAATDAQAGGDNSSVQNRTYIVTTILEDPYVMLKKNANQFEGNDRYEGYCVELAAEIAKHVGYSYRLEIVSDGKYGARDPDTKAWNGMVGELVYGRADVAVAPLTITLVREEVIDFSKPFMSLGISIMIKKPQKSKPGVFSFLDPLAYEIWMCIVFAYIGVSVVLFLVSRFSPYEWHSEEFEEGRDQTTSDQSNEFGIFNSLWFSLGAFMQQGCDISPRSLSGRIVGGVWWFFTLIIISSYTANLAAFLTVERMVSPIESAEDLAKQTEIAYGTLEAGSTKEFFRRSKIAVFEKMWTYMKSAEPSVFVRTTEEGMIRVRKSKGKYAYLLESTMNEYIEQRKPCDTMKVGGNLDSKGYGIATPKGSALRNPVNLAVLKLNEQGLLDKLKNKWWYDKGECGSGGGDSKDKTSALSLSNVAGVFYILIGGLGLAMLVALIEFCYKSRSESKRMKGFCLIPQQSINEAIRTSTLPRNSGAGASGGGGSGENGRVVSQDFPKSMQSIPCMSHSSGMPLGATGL

Legend:
GluR3 = assay type: cell-based, rat; settings: for response of oocytes to agonist (in words): QUIS 10 μM, AMPA 50 μM, GLU 100 μM, NMDA 30 μM plus 10 μM glycine, APB 50 μM, -70 mV, 3 days after 2 ng RNA
GluR5-1 = assay type: cell-based, rat; settings: KA, AMPA 50 μM, quisqualate 10 μM, APB 100 μM, NMDA 100 μM with 10 μM glycine
[1] = tested on: oocytes injected with pool of in vitro transcripts from rat forebrain cDNA library; experiment: Voltage recordings from oocytes injected with pooled in vitro transcripts of the λZAPII RTB1 cDNA library; assay type: cell-based; settings: 10 days after injection
Method: A directional cDNA library (λZAPII RTB1; complexity: 8×10^5 elements), consisting of 18 independent sublibraries of 44,000 clones each, was constructed from this poly(A)^+ RNA using the bacteriophage expression vector λZAPII. A pool of in vitro transcripts, comprised of transcripts made separately from all 18 amplified sublibraries, was injected into oocytes. […]. No responses to NMDA or quisqualate were detected. […]. Subsequently, pools of 44,000 clones (=the single sublibraries), 4,000, 400 and 40 clones were tested. In each of these tests at least one pool responded to KA.

GluR1 = GluR1 (Rattus norvegicus, UniProt P19490); experiment: Electrophysiological recording in Xenopus oocytes injected with GluR1 in vitro RNA; settings: -70 mV
GluR2 = settings: 100 μM KA

Cc1onc(O)c1CC(N)C(=O)O (stereo not drawn) [AMPA, α-amino-3-hydroxy-5-methyl-isoxazole-4-propionic acid]
response of oocytes to agonist (in words) (GluR3): respond

N[C@@H](Cn1oc(=O)[nH]c1=O)C(=O)O [quisqualate, quisqualic acid]
membrane depolarization elicited by agonist (in words) (GluR5-1): did not elicit membrane depolarizations | response to agonist (in words) [1]: No responses | response of oocytes to agonist (in words) (GluR3): respond | response of oocytes to agonist (in words) (GluR1; QUIS 10 μM, AMPA 50 μM, GLU 100 μM, NMDA 30 μM plus 10 μM glycine, APB 50 μM, 3 days after 2 ng RNA): respond

C=C(C)[C@H]1CN[C@H](C(=O)O)[C@H]1CC(=O)O [kainate, kainic acid]
depolarizations ([1]; 100 μM kainate): 1-3 mV | depolarization on bath application (GluR3; 100 μM KA): depolarize | depolarization on bath application (GluR2): depolarize | Compound Alone (%) (GluR1; % of the response evoked by 30 μM kainate immediately before drug application, compounds at 1 mM (kainate 30 μM), peak currents, 3 oocytes, ± SEM): 100.0%
